From patent publication US20150258192A1, “COMPOSITIONS AND METHODS FOR PREVENTING OR TREATING CHRONIC LUNG ALLOGRAFT DYSFUNCTION (CLAD) AND IDIOPATHIC PULMONARY FIBROSIS (IPF)” (priority 2014, published 2015)

Key:
Assay in all cases: Kinase Profiling Assay
Type in all cases: biochemical
Conditions in all cases: peptide 100 μM
Fgr(h) = Fgr(h) (Homo sapiens, UniProt P09769)
Procedure, shortened: (§1)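 Duplicate wells; [radiolabeled] ATP phosphate onto cationic substrate; filter capture (negatively charged membrane); scintillation count; % of 100% activity control. Selectivity screen of MK2 peptide inhibitors, 266 human kinases.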

Arg(h) = Arg(h) (Homo sapiens, UniProt P42684)
Procedure, shortened: as §1

CaMKIV(h) = CaMKIV(h) (Homo sapiens, UniProt Q16566)
Procedure, shortened: as §1

EGFR(h) = EGFR(h) (Homo sapiens, UniProt P00533)
Procedure, shortened: as §1

PDGFRα(h) = PDGFRα(h) (Homo sapiens, UniProt P16234)
Procedure, shortened: as §1

PDK1(h) = PDK1(h) (Homo sapiens, UniProt O15530)
Procedure, shortened: as §1

CK2(h) = CK2(h) (Homo sapiens, UniProt P68400)
Procedure, shortened: as §1

Syk(h) = target: T1, Syk(h) (Homo sapiens, UniProt P43405)
T1 construct: purchased Millipore
Procedure, shortened: as §1

FGFR4(h) = FGFR4(h) (Homo sapiens, UniProt P22455)
Procedure, shortened: as §1

mTOR(h) = target: T2, mTOR(h) (Homo sapiens, UniProt P42345)
T2 construct: purchased Millipore
Procedure, shortened: as §1

PAK5(h) = PAK5(h) (Homo sapiens, UniProt Q9P286)
Procedure, shortened: as §1

DMPK(h) = DMPK(h) (Homo sapiens, UniProt Q09013)
Procedure, shortened: as §1

PKCδ(h) = PKCδ(h) (Homo sapiens, UniProt Q05655)
Procedure, shortened: as §1

Met(M1268T)(h) = target: T3, Met(M1268T)(h) (Homo sapiens, UniProt P08581, M1250T)
T3 construct: purchased Millipore
Procedure, shortened: as §1

PhKγ2(h) = PhKγ2(h) (Homo sapiens, UniProt P15735)
Procedure, shortened: as §1

Pim-2(h) = Pim-2(h) (Homo sapiens, UniProt Q9P1W9)
Procedure, shortened: as §1

Lck(h) activated = target: T4, Lck(h) activated (Homo sapiens, UniProt P06239)
T4 construct: purchased Millipore
Procedure, shortened: as §1

PRAK(h) = target: T5, PRAK(h) (Homo sapiens, UniProt Q8IW41)
T5 sequence (Q8IW41 1-473): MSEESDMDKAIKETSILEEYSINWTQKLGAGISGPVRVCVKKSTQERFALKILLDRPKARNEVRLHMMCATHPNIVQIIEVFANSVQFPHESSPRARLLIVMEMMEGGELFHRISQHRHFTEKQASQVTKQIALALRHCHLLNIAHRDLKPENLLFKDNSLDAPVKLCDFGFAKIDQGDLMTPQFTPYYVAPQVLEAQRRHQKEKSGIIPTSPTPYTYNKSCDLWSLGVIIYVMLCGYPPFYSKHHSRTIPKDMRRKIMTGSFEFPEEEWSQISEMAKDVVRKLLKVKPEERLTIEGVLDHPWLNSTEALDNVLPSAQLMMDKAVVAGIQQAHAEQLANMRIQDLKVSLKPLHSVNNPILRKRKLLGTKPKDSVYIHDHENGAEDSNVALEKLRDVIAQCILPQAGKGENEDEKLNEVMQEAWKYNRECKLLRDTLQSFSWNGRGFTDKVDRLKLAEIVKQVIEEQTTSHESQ
Procedure, shortened: as §1

MKK7β(h) = target: T6, MKK7β(h) (Homo sapiens, UniProt O14733)
T6 construct: purchased Millipore
T6 sequence (O14733 1-419): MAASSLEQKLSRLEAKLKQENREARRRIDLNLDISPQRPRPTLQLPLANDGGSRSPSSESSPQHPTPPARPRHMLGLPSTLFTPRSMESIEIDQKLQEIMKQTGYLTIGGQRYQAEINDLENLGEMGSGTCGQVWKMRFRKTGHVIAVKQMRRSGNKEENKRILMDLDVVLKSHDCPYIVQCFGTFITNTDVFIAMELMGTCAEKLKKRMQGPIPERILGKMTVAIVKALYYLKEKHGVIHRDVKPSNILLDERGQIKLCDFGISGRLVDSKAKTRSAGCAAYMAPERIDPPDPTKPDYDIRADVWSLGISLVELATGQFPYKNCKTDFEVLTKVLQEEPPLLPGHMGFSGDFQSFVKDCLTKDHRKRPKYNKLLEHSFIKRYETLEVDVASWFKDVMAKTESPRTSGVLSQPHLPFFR
Procedure, shortened: as §1

Ret(V804M)(h) = Ret(V804M)(h) (Homo sapiens, UniProt P07949, V804M)
Procedure, shortened: as §1

Compound | % activity (Fgr(h)) [%] | % activity (Arg(h)) [%] | % activity (CaMKIV(h)) [%] | % activity (EGFR(h)) [%] | % activity (PDGFRα(h)) [%] | % activity (PDK1(h)) [%] | % activity (CK2(h)) [%] | % activity (Syk(h)) [%] | % activity (FGFR4(h)) [%] | % activity (mTOR(h)) [%] | % activity (PAK5(h)) [%] | % activity (DMPK(h)) [%] | % activity (PKCδ(h)) [%] | % activity (Met(M1268T)(h)) [%] | % activity (PhKγ2(h)) [%] | % activity (Pim-2(h)) [%] | % activity (Lck(h) activated) [%] | % activity (PRAK(h)) [%] | % activity (MKK7β(h)) [%] | % activity (Ret(V804M)(h)) [%]
CC(C)C[C@H](NC(=O)[C@H](C)NC(=O)[C@H](CCCCN)NC(=O)[C@H](C)NC(=O)[C@H](CCCNC(=N)N)NC(=O)[C@H](C)NC(=O)[C@H](CCC(N)=O)NC(=O)[C@H](CCCNC(=N)N)NC(=O)[C@H](C)NC(=O)[C@H](C)NC(=O)[C@H](C)NC(=O)[C@H](CCCNC(=N)N)NC(=O)[C@H](C)NC(=O)[C@@H](N)Cc1ccc(O)cc1)C(=O)N[C@@H](C)C(=O)N[C@@H](CCCNC(=N)N)C(=O)N[C@@H](CCC(N)=O)C(=O)N[C@@H](CC(C)C)C(=O)NCC(=O)N[C@H](C(=O)N[C@@H](C)C(=O)N[C@@H](C)C(=O)O)C(C)C [MMI-0100] | 54 | 89 | 87 | 95 | 104 | 144 | 90 | 45 | 67 | 102 | 97 | 60 | 100 | 114 | 62 | 117 | 106 |  |  | 
YARAAARQARAKALNRQLGVA (Mammal) [MMI-0200] |  |  |  |  |  |  |  |  |  |  |  |  |  |  |  |  |  | 115 | 117 | 105
